# Reference: ChEMBL document CHEMBL3638802, “Preparation and uses of 1,2,4-triazolo [1,5a] pyridine derivatives” (2013)
# Amino acid sequences for entries named in this document (tags omitted).
# UniProt Q05397, whole entry: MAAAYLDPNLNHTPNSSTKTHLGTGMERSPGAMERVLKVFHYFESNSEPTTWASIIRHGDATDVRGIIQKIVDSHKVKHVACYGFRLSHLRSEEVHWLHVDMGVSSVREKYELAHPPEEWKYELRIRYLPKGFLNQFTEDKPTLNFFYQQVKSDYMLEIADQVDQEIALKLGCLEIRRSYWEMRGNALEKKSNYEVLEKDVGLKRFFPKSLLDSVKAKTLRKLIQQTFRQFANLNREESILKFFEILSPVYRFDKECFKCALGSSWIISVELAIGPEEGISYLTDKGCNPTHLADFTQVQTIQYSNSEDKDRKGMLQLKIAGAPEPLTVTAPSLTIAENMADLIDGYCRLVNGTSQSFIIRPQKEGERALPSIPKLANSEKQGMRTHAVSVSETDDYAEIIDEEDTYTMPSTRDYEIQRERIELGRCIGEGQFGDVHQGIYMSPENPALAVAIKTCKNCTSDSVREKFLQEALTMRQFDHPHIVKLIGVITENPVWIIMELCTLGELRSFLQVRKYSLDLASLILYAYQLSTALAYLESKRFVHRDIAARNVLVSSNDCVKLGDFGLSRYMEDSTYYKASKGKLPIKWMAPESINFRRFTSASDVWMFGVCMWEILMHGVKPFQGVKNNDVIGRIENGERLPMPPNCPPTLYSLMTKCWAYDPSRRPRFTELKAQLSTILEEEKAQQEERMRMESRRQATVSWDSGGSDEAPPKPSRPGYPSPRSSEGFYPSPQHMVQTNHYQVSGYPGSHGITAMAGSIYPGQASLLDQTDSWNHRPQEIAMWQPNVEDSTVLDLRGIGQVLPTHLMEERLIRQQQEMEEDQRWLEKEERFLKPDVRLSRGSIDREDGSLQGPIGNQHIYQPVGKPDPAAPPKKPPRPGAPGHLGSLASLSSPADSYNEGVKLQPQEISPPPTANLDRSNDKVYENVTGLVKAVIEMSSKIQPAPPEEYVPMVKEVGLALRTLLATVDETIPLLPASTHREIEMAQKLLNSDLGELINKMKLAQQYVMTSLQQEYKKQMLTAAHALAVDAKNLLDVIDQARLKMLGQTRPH
# Molecular target: Focal adhesion kinase 1 (Homo sapiens, UniProt Q05397)
smiles,measurement,value
Oc1cccn2nc(Nc3ccc(C(F)(F)F)cc3)nc12,IC50,≥ 10 µM
